Data on one molecule can be found in US12404250B2, “PARP inhibitors for treating cancer and asthma” (Oregon Health & Science University, priority 2018, dated 2025).

What is called IC50 is the concentration that gives 50% inhibition. Lower therefore signals greater potency.

One assay addresses T1, PARP12 (Homo sapiens, UniProt Q9H0J9).
T1 construct: expressed in transfected cells; host or cells: HEK 293T
T1 sequence (Q9H0J9 1-701): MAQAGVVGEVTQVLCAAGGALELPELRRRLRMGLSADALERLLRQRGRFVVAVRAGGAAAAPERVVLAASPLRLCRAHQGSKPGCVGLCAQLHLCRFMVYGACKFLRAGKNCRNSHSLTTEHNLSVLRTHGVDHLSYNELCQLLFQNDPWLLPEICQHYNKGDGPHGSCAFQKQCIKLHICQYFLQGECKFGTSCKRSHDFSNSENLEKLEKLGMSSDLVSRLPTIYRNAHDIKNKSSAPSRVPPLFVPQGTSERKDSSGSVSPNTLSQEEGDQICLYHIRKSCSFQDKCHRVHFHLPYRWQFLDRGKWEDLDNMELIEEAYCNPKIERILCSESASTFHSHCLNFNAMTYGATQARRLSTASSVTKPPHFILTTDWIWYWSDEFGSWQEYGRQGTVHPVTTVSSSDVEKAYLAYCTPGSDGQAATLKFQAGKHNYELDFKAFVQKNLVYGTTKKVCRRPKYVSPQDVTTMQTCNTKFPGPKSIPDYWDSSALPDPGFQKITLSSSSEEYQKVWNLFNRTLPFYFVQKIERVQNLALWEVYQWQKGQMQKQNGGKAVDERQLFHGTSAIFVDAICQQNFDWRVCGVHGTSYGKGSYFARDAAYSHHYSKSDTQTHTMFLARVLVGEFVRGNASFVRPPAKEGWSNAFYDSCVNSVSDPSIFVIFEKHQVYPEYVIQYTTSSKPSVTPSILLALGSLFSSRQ
The assay is described as follows: In vitro IC50, immunoprecipitated GFP-PARP12 auto-MARylation. Format: biochemical.

Another assay deals with T2, PARP15 cat (Homo sapiens, UniProt Q460N3).
T2 construct: cat-wwe; cat
T2 sequence (Q460N3 482-678 limits assumed): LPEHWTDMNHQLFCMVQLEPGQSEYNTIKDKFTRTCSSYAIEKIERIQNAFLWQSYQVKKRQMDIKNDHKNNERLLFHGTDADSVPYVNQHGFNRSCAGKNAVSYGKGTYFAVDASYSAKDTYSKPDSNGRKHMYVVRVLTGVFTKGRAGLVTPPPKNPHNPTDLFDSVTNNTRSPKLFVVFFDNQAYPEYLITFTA
The assay is described as follows: In vitro IC50, PARP15 cat. The assay is classed as biochemical. As to conditions: SEM from a minimum of three dose-response experiments.

Each structure is given as a SMILES string.

`CNCc1ccc(-c2[nH]c3cc(F)cc4c3c2CCNC4=O)cc1` [Rucaparib, reference compound]: the IC50 against PARP12 is approximately 7 µM; against PARP15 cat it was more than 10 µM.
